Experiment: Test B: Cytotoxicity Assay
Assay type: cell-based
Details: human, uninfected MT-4 cells, CellTiter-Glo
Description: Test B: Cytotoxicity Assay Compound cytotoxicity and the corresponding CC50 values was determined using the same protocol as described in the antiviral assay (Test A) except that uninfected cells were used.

Cn1nc(NS(C)(=O)=O)c2c(Cl)ccc(-c3ccc(C#CC4(O)CC(F)(F)C4)nc3[C@H](Cc3cc(F)cc(F)c3)NC(=O)Cn3nc(C(F)F)c4c3C(F)(F)[C@@H]3C[C@H]43)c21 [Compound 95E, N—((S)-1-(3-(4-chloro-1-methyl-3-(methylsulfonamido)-1H-indazol-7-yl)-6-((3,3-difluoro-1-hydroxycyclobutyl)ethynyl)pyridin-2-yl)-2-(3,5-difluorophenyl)ethyl)-2-((3bS,4aR)-3-(difluoromethyl)-5,5-difluoro-3b,4,4a,5-tetrahydro-1H-cyclopropa[3,4]cyclopenta[1,2-c]pyrazol-1-yl)acetamide]
CC50 at 5 days: 8.75 µM

From US9873680B2 (Gilead Sciences, Inc., priority 2014, dated 2018)
